What is called pKb is the negative decadic logarithm of the Kb, by convention in mol/L. High values mean a small Kb, low ones a large Kb. By Ki is commonly meant a measure of affinity in units of concentration, obtained from inhibition or displacement. Read a low Ki as a stronger hold on the target.

The chains behind the UniProt entries cited, without tags or fusion partners. Where a name states a change or a piece, a line headed by the entry shows the natural chain unless it says otherwise.
UniProt Q9Y5N1: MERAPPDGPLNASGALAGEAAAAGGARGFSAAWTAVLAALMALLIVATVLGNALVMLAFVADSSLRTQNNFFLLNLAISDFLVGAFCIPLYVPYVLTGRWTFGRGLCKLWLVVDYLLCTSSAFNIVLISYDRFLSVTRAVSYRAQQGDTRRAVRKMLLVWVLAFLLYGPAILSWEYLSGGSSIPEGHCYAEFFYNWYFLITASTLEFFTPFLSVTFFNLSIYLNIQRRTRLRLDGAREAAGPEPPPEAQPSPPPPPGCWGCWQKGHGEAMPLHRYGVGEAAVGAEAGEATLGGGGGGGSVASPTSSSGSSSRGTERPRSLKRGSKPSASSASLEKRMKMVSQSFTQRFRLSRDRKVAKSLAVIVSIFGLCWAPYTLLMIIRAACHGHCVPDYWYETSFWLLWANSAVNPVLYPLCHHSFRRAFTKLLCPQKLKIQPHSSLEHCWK
UniProt Q91ZY1: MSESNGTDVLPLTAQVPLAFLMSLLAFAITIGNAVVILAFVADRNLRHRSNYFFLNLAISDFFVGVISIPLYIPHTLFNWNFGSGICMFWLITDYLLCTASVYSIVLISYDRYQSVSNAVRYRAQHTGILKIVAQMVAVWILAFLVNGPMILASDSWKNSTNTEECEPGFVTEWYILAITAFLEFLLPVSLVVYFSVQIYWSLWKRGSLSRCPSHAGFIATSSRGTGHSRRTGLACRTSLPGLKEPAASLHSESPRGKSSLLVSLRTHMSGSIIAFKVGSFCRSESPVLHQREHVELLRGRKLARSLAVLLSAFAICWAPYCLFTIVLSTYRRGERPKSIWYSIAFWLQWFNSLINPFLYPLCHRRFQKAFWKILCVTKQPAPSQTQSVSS
UniProt Q9QYN8: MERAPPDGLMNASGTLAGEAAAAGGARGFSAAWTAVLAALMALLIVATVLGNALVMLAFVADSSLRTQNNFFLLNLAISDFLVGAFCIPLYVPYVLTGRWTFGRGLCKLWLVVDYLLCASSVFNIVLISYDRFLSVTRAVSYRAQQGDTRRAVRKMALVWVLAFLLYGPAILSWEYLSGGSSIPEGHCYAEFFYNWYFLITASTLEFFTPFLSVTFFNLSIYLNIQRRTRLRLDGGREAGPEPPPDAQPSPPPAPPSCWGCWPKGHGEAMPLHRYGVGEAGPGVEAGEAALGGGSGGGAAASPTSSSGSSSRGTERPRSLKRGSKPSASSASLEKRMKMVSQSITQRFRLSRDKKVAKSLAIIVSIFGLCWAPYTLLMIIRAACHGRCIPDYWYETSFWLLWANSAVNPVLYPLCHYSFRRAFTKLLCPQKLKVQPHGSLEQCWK

The record followed here is ChEMBL document CHEMBL1140148, “Structure-activity studies on a series of a 2-aminopyrimidine-containing histamine H4 receptor ligands” (J Med Chem, 2008).

Experiment [1] deals with Histamine H3 receptor (Homo sapiens, UniProt Q9Y5N1).
Experiment [2] deals with Histamine H4 receptor (Rattus norvegicus) (UniProt Q91ZY1). As to conditions: HEK293.
Experiment [3] deals with Histamine H3 receptor (Rattus norvegicus, UniProt Q9QYN8). Description: Binding affinity to rat histamine H3 receptor.

Molecules are shown by their SMILES.

With `CN1CCN(c2cc(-c3ccc(C#N)cc3)nc(N)n2)CC1`, the negative logarithm of the Kb (pKb) at Histamine H3 receptor [1] was found to be 6.5; in experiment [2], 6.21. `CN1CCN(C(=O)c2cc3cc(Cl)ccc3[nH]2)CC1` [JNJ-7777120] had a Ki at Histamine H3 receptor [3] of 1320 nM.
